Measured values published in paper PMC2009656 (British Journal of Cancer, 1978).

System: isolated liver rough endoplasmic reticulum (RER)
Details: Table IV.3; incubate 12 ug/ml; 2 h, 25 C; >5% regarded as positive

## Dinitrobenzene
  Degranulation (%): 0-1%

Some compounds may have been tested in ways that are not shown here.
